The subject of this experiment is TS/A cells (HER-2 negative). In words: Proliferation assay (MTT) of TS/A cells in presence of HRG. Type of experiment: cell-based, mouse. To be noted: HER-2 negative cell line. The procedure: Proliferation assay. BT-474, SK-BR-3, MDA-468 and TS/A cells (1×10^4 were plated in 96-well flat-bottom plates overnight. Growth medium was replaced with low sera (1% FCS) medium and the cells were incubated overnight. Media were removed from the wells and replaced with low sera medium containing HER-2 and VEGF mimic peptides at concentrations ranging from 25-150 ug/ml and plates were incubated an additional 1 h at 37° C. before adding 10 ng/ml HRG in 1% medium. Plates were incubated for an additional 72 h at 37° C. before adding MTT (5 mg/ml) to each well. Plates were incubated 2 h at 37° C., and 1000 of extraction buffer (20% SDS, 50% dimethylformamide (pH 4.7)) was added to each well. Plates incubated overnight at 37° C. and read on an ELISA reader at 570 nm with 655 nm background subtraction Inhibition percentage was calculated as 100%×(Untreated cells-Peptide treated cells)/(Untreated cells).
Antiproliferative effects of peptides. The antiproliferative effects of the peptides were tested using four different cell lines (Bt-474 and SK-BR-3: HER-2^high, MDA-468: HER-2^low and TS/A: HER-2^negative) (FIGS. 13A-13D) in the presence of HRG to activate the HER-3 receptor. Unlike trastuzumab that is specific to HER-2 positive cells, pertuzumab is known to act on cells by disrupting ligand dependent receptor complexes independent of HER-2/neu expression. […]

For the substance “Trastuzumab: humanized mAb that targets HER-2, positive control [reference compound]”, the “antiproliferative effect on TS/A cells” value is reported as “no inhibition”.

The record behind these values is patent US9504738B2, “Immunogenic epitopes, peptidomimetics, and anti-peptide antibodies, and methods of their use” (Ohio State Innovation Foundation, priority 2010, dated 2016).
